Experimental data as given in patent US4397860A, “Benzodioxanyl imidazoline compounds, compositions and use” (Reckitt & Colman Products Limited, priority 1981, dated 1983).

Legend:
[1] = target: T1, pre-synaptic α2-adrenoreceptor (Mus musculus, UniProt Q01338); assay: Pre-synaptic α2-adrenoreceptor antagonist activity, mouse vas deferens (reversal of clonidine inhibition)
T1 construct: The mouse vas deferens was stimulated at low frequency (0.1 Hz); from tissue; host or cells: mouse vas deferens
T1 sequence (Q01338 1-465): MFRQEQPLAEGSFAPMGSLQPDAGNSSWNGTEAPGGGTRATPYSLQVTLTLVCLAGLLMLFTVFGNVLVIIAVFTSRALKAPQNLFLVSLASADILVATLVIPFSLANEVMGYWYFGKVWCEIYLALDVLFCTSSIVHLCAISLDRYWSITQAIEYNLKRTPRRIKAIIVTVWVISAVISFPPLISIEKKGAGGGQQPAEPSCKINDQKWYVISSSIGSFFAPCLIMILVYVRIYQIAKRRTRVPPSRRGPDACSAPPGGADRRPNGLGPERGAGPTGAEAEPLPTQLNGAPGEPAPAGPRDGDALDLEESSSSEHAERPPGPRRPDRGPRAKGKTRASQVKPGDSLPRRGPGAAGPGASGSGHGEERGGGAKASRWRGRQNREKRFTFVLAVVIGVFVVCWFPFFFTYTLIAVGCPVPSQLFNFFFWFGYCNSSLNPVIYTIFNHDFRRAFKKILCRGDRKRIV

[2] = target: T2, presynaptic α2-adrenoreceptor (Rattus norvegicus, UniProt P22909); assay: Presynaptic α2-adrenoreceptor antagonism in the pithed rat (reversal of clonidine block on vas deferens, i.v.); assay type: in vivo
T2 sequence (P22909 1-465): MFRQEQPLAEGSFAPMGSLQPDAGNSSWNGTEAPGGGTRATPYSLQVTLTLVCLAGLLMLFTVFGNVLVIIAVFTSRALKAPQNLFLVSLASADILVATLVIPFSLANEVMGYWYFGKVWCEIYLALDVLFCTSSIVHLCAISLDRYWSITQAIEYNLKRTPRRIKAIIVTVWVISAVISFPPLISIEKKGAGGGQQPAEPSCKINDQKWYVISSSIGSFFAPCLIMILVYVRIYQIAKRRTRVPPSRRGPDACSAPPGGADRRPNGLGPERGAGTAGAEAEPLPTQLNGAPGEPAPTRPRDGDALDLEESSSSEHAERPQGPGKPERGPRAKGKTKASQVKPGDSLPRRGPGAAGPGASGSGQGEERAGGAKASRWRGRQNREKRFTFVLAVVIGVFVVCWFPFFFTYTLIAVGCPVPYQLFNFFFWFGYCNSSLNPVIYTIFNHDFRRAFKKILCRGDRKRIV

[3] = target: T2, presynaptic α2-adrenoreceptor
[4] = target: T2, presynaptic α2-adrenoreceptor; conditions: Table 1, of the compounds studied

| Structure (SMILES) | α2 potency: Antagonism [1] | presynaptic α2-adrenoreceptor antagonist potency in the pithed rat (in words) ([2]; Table 2, of those studied) | ED50 ([2]; iv, pithed rat, i.v. cumulative dosing, clonidine 100 μg/kg i.v., mean of minimum 4 rats, read-out: i.v. dose of antagonist causing 50% reversal of clonidine block on vas deferens) [mg/kg] | Kb [3] [nM] | presynaptic α2-adrenoreceptor antagonist potency (in words) [4] | selectivity for presynaptic sites (in words) [4] |
| --- | --- | --- | --- | --- | --- | --- |
| CN1CCN=C1C1COc2ccccc2O1 (stereo not drawn) [3^1 -methyl] | 0.003 | – | – | – | – | – |
| CC1(C2=NCCN2)COc2ccccc2O1 (stereo not drawn) [Example 1, 2-[2-(2-Methyl-1,4-benzodioxanyl)]-2-imidazoline hydrochloride] | – | clearly the most potent presynaptic α2 -adrenoreceptor antagonist | 0.04 | 2.51 | the most potent presynaptic α2 -adrenoreceptor antagonist | the most selective for presynaptic sites |

Counter-ions that a name gives are not always drawn.
